For two compounds, IC50 results are on record in patent US20160237059A1, “HETEROCYCLIC SUBSTITUTED TRIFLUOROMETHYL PYRIMIDINONES AND THEIR USE” (BAYER PHARMA AKTIENGESELLSCHAFT, priority 2013, published 2016).

The chains behind the UniProt entries cited, without tags or fusion partners. Residues count along the entry.
UniProt P51683, whole entry: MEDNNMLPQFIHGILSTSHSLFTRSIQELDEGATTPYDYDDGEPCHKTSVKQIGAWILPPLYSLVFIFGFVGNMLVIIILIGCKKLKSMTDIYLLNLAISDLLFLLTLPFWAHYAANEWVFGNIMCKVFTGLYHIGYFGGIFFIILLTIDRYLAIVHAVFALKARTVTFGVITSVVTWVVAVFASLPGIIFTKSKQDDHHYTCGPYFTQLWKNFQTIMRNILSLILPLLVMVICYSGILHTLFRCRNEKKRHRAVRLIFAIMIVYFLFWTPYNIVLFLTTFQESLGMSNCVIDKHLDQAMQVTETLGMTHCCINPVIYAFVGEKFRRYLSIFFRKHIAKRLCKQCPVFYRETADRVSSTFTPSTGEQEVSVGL
UniProt P41597, 1-360 isoform 2: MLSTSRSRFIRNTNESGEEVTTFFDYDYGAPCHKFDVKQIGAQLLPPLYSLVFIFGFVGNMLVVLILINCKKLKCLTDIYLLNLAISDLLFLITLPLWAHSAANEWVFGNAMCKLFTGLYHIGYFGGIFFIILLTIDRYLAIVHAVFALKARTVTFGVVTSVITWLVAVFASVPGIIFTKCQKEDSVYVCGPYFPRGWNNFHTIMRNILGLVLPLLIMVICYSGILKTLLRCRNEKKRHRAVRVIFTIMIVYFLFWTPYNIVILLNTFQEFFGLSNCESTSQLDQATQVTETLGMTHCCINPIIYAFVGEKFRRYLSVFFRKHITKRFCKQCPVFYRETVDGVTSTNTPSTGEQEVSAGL

Molecules are shown by their SMILES.

The target of assay [1] is murine CCR2 (Mus musculus, UniProt P51683). Description: Functional β-arrestin recruiting test with human MCP-1 (B-2a). To be noted: U2OS β-arrestin cell line transfected with murine CCR2; agonist human MCP-1 at EC50 (about 3 nM); in some cases means of several determinations. As for the experimental part:
The antagonistic action of test substances on CCR2 was determined in a β-arrestin test. The PathHunter β-arrestin GPCR test system (DiscoveRx Corporation, Ltd.) is a cell-based functional method for detecting binding of β-arrestin to an activated receptor. The molecular basis is a […] complementation measured by the enzymatic conversion of a chemiluminescent substrate. The test cell used was a U2OS β-arrestin cell line transfected with murine CCR2 (93-0543C3, DiscoveRx Corporation, Ltd.).
The test substances were dissolved in dimethyl sulphoxide (DMSO) at a concentration of 10 mM and serially diluted with DMSO in steps of 1:3.16 for a 10-point dose/activity analysis. […]
The cells, cultivated in MEM Eagle (supplemented with 10% FCS, 50 U/ml of penicillin, 50 μg/ml of streptomycin, 250 μg/ml of hygromycin and 500 μg/ml of geniticin), were sown at 2000 cells/25 μl in 384 well, μCLEAR/black cell culture plates from Greiner (#781092) and incubated at 37° C. for 24 h. […] After 90 min of incubation at 37° C., the solution was removed, and recruitment of β-arrestin to CCR2 was detected with the aid of the PathHunter detection reagent (93-001, DiscoveRx Corporation, Ltd.) according to the instructions of the manufacturer. Luminescence was measured after an incubation time of 60 min using a proprietary luminescence imaging measuring instrument. […]
On the technique in general: Recruitment of arrestin is a read-out of receptor activation apart from second messengers.

Assay [2] addresses human CCR2 (Homo sapiens, UniProt P41597). Description: Functional Ca2+ release test (B-1). Particulars: Chem-1 cell line transfected with human CCR2; 50% inhibition of the MCP-1 effect, MCP-1 at EC50 (about 5 nM); in some cases means of several determinations. As for the experimental part:
The antagonistic action of test substances on CCR2 was determined in a functional Ca^2+ release test. Binding of CCL2/MCP-1 to CCR2 leads to a change in the conformation of the receptor resulting in Gi/Gq protein activation and intracellular signal cascade. This involves, inter alia, an intracellular Ca^2+ release. The test cell used was a Chem-1 cell line transfected with human CCR2 (ChemiSCREEN™ CCR2B Calcium-Optimized FLIPR Cell Line, Merck Millipore).
The test substances were dissolved in dimethyl sulphoxide (DMSO) at a concentration of 10 mM and serially diluted with DMSO in steps of 1:3.16 for a 10-point dose/activity analysis. According to the desired test concentrations, the substances were pre-diluted in Tyrode with 2 mM CaCl2 and 0.05% BSA.
The cells, cultivated in DMEM high glucose [supplemented with 10% FCS, 1 mM pyruvate, 15 mM HEPES, 500 μg/ml geniticin and non-essential amino acids (NEAA)], were sown at 5000 cells/25 μl in 384 well, μCLEAR/black cell culture plates from Greiner (#781092) and incubated at 37° C. for 24 h. The sowing medium consisted of DMEM high glucose [supplemented with 5% FCS, 1 mM pyruvate, 15 mM HEPES, 50 U/ml penicillin, 50 μg/ml streptomycin and non-essential amino acids (NEAA)]. […] Ca^2+ release was monitored over a period of 120 s in 1 s increments in a proprietary fluorescence imaging reader. […]

What is called IC50 is the midpoint of a concentration-inhibition curve. A higher IC50 goes with weaker potency in that assay. As for `O=C(O)C1CCN(c2nc(C(F)(F)F)c(Cc3ccc(Cl)c(Cl)c3)c(=O)[nH]2)CC1`, the 50% inhibitory concentration (IC50) was found to be 1400 nM in assay [1] and 18 nM in assay [2].

With `CC1CCCN1Cc1nc(C(F)(F)F)c(Cc2ccc(Cl)c(Cl)c2)c(=O)[nH]1` (stereo not shown), the half-inhibitory concentration (IC50) in assay [1] worked out at 2500 nM; in assay [2], 160 nM.
